Experimental findings from article PMC9394474 (Viruses, 2022) are described below.

One test addresses T1, human hisTRIM7-PRYSPRY (human, UniProt Q9C029 342-511).
T1 construct: vector pOPTH; also called hTRIM7-PRYSPRY; hTRIM7
As to the kind of experiment: ITC. Particulars: both partners purified.

Another test deals with hisMBP-TRIM7-CC-PRYSPRY (human, UniProt Q9C029 165-511). As to the kind of experiment: ITC. The note with it: both partners purified.

B1: rabbit glycogenin-1, full length (natural protein)
chain: MTDQAFVTLTTNDAYAKGALVLGSSLKQHRTSRRLAVLTTPQVSDTMRKALEIVFDEVITVDILDSGDSAHLTLMKRPELGVTLTKLHCWSLTQYSKCVFMDADTLVLANIDDLFEREELSAAPDPGWPDCFNSGVFVYQPSVETYNQLLHVASEQGSFDGGDQGLLNTFFNSWATTDIRKHLPFIYNLSSISIYSYLPAFKAFGANAKVVHFLGQTKPWNYTYDTKTKSVRSEGHDPTMTHPQFLNVWWDIFTTSVVPLLQQFGLVQDTCSYQHVEDVSGAVSHLSLGETPATTQPFVSSEERKERWEQGQADYMGADSFDNIKKKLDTYLQ
notes: vector pOPTH; also called rbGYG1; full-length rbGYG1
What is called Kd is the constant that tells how readily two partners part at equilibrium. The low end stands for higher affinity, the high end for lower affinity. B1 registered a Kd in the test with human hisTRIM7-PRYSPRY of 2.3 µM.

B2: hsGYG1 322-333 peptide (peptide)
peptide: DNIKRKLDTYLQ
With B2, in the test with hisMBP-TRIM7-CC-PRYSPRY, binding was put at a Kd of 15 ± 6 µM.

B3: hexahistidine-tagged full-length human GYG1, GN1 isoform (natural protein)
chain: MTDQAFVTLTTNDAYAKGALVLGSSLKQHRTTRRLVVLATPQVSDSMRKVLETVFDEVIMVDVLDSGDSAHLTLMKRPELGVTLTKLHCWSLTQYSKCVFMDADTLVLANIDDLFDREELSAAPDPGWPDCFNSGVFVYQPSVETYNQLLHLASEQGSFDGGDQGILNTFFSSWATTDIRKHLPFIYNLSSISIYSYLPAFKVFGASAKVVHFLGRVKPWNYTYDPKTKSVKSEAHDPNMTHPEFLILWWNIFTTNVLPLLQQFGLVKDTCSYVNVEDVSGAISHLSLGEIPAMAQPFVSSEERKERWEQGQADYMGADSFDNIKRKLDTYLQ
notes: also called hsGYG1-GN1; hGYG1-GN1
The molecule B3 returned a Kd with hisMBP-TRIM7-CC-PRYSPRY of 0.16 ± 0.05 µM.
